Assay results: patent US20150065440A1 (Progen Pharmaceuticals Limited, priority 2007, published 2015)

By UniProt entry, the sequences of proteins in these tests, tags left out.
UniProt P05230, whole entry, species assumed: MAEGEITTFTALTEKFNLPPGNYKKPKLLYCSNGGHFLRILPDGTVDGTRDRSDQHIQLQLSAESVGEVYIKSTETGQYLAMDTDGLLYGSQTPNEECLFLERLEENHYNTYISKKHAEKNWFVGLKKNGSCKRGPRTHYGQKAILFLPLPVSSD

Molecular target: FGF-1 (Homo sapiens, UniProt P05230)
Assay: Growth factor binding assay (SPR solution affinity), FGF-1
Details: HBS-EP buffer, 25° C.
Method: Binding affinities of compounds for the growth factors FGF-1, FGF-2 and VEGF were measured using a surface plasmon resonance (SPR) based solution affinity assay.^9 Heparin-coated sensorchips used for this assay were prepared via immobilisation of biotinylated BSA-heparin on a streptavidin-coated sensorchip, or via aldehyde coupling using either adipic acid dihydrazide or 1,4-diaminobutane.^9 For each Kd measurement, solutions were prepared containing a fixed concentration of protein and varying concentrations of the ligand in buffer. Ligands binding to FGF-1 and VEGF were measured in HBS-EP buffer (10 mM HEPES, pH 7.4, 150 mM NaCl, 3.0 mM EDTA and 0.005% (v/v) polysorbate 20), while binding to FGF-2 was measured in HBS-EP buffer containing 0.3 M NaCl. Prior to injection, samples were maintained at 4° C. to maximise protein stability. For each assay mixture, 50-200 μL of solution was injected at 5-40 μL/min and the relative binding response measured. All surface binding experiments were performed at 25° C. The surface was regenerated by injection of 40 μL of 4M NaCl at 40 μL/min, followed by injection of 40 μL of buffer at 40 μL/min.
Sensorgram data were analysed using the BIAevaluation software (BIAcore) and Kd values determined as previously described.^9 Where Kd values were measured in duplicate, the values represent the average of the duplicate measurements.

Kd: 8 ± 4 nM
Compound: CC(C)CCCC(C)C1CCC2C3CCC4CC(OC5OC(COS(=O)(=O)O)C(OC6OC(COS(=O)(=O)O)C(OC7OC(COS(=O)(=O)O)C(OC8OC(COS(=O)(=O)O)C(OS(=O)(=O)O)C(OS(=O)(=O)O)C8OS(=O)(=O)O)C(OS(=O)(=O)O)C7OS(=O)(=O)O)C(OS(=O)(=O)O)C6OS(=O)(=O)O)C(OS(=O)(=O)O)C5OS(=O)(=O)O)CCC4(C)C3CCC12C [Compound 65, 3β-Cholestanyl 2,3,4,6-tetra-O-sodium sulfonato-α-D-glucopyranosyl-(1→4)-2,3,6-tri-O-sodium sulfonato-α-D-glucopyranosyl-(1→4)-2,3,6-tri-O-sodium sulfonato-α-D-glucopyranosyl-(1→4)-2,3,6-tri-O-sodium sulfonato-β-D-glucopyranoside]
